Laboratory results from ChEMBL document CHEMBL4138098, “Synthesis and pharmacological evaluation of neurosteroid photoaffinity ligands” (Eur J Med Chem, 2017).

Protein sequences, listed by entry. Tags and fused reporters are not part of them. Lines headed by an entry give the natural chain unless they say otherwise; changes in a name come on top.
UniProt P14867: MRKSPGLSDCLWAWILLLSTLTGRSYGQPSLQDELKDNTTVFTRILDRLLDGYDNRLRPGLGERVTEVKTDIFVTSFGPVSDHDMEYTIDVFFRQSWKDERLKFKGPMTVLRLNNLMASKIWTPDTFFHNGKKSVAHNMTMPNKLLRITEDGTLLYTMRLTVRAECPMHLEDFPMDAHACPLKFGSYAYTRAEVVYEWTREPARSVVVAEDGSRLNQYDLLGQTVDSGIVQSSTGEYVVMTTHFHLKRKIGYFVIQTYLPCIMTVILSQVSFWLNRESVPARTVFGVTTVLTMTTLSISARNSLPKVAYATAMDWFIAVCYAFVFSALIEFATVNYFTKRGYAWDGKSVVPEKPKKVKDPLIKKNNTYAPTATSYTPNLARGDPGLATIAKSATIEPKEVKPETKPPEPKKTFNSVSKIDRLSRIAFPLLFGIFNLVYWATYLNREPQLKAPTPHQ
UniProt P47870: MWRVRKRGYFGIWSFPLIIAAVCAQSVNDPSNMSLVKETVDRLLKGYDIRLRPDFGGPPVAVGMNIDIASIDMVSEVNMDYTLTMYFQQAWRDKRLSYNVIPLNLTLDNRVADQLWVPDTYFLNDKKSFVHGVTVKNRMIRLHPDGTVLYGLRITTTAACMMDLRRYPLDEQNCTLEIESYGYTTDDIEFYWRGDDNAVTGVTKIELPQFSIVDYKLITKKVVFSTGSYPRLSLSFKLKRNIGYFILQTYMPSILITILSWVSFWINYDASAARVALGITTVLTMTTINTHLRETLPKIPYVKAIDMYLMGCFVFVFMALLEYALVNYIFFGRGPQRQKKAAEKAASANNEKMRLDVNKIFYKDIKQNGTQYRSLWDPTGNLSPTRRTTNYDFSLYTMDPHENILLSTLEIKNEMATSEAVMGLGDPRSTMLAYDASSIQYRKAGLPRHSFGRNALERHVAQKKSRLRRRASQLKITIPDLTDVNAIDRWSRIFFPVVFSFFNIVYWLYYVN
UniProt P18507: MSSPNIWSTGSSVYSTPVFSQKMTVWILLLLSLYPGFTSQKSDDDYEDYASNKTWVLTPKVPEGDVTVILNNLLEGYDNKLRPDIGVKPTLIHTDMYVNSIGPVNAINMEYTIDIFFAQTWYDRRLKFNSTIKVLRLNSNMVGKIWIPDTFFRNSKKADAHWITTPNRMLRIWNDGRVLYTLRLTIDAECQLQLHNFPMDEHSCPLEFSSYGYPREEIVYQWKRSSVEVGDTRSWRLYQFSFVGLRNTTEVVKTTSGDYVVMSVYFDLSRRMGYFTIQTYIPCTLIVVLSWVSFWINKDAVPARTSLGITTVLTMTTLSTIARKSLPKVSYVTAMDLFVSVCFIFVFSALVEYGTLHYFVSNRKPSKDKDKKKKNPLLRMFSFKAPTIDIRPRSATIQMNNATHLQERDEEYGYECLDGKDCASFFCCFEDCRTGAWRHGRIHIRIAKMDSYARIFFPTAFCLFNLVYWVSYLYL

Biological target: GABA-A receptor; alpha-1/beta-2/gamma-2 (Homo sapiens) (UniProt P14867+P47870+P18507)
Test: Positive allosteric modulation of human GABAA receptor alpha1beta2gamma2L expressed in Xenopus laevis oocytes assessed as potentiation of GABA chloride current up to 100 uM incubated for 15 to 25 secs by two-electrode voltage clamp assay relative to control
Type: cell-based
In short: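 Xenopus laevis oocytes injected with ~100 ng cRNA of human α1, β2, γ2L (1:1:2). Two-electrode voltage clamp at −50 mV, room temperature, perfused with ND96 pH 7.5. Compound diluted from DMSO stock into ND96 (≤1% DMSO final). Applied 15–25 s with ~3 min washes.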

SMILES: CC(=O)[C@H]1CC[C@H]2[C@@H]3CC[C@H]4C[C@H](O)CC[C@]4(C)[C@H]3C(=O)C[C@]12C [ALFAXALONE]
- fold change (FC): 30
